Assay results from paper PMC10504495, “Identification of SIRT3 as an eraser of H4K16la” (iScience, 2023).

Chains of the proteins cited; added tags and fusions are not shown. Residues count along the entry.
UniProt Q9NTG7, 118-399: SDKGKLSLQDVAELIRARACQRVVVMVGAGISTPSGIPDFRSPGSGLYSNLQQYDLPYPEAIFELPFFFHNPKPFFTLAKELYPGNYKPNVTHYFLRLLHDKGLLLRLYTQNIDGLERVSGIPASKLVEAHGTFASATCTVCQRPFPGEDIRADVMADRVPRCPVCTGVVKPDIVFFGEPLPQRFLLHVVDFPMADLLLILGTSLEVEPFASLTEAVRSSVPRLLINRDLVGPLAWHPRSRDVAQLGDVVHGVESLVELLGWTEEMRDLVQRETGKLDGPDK

What was measured:
[1] = target: human SIRT3 (118-399 aa) (human) (UniProt Q9NTG7)
[2] = target: human SIRT3 (118-399 aa) (human) (UniProt Q9NTG7); assay: ITC; 40 μL of 2 mM lactyl peptide (needle) titrated in 20 injections into 200 μL of 30 μM Sirtuin (cell); 25°C; 20 μM Tris (so in the source) pH 7.5, 150 mM NaCl

Substance | KM of delactylation of the H4K16la peptide by SIRT3 (HPLC, Lineweaver-Burk; 200 nM SIRT3, 10-200 μM peptide, 37°C; the LC peptide carries added tryptophans at both ends) [1] | fold affinity against the lactylated L-lysine peptide [2]
H4K16la peptide | 143 µM | –
H4K16la(D) peptide | – | 2 fold
